Test system: rhinovirus
Experiment: In vitro rhinovirus model
Assay type: cell-based

Compound: c1ccc2[nH]c(-c3cscn3)nc2c1 [thiabendazole, 2-(4-thiazolyl)-1-H-benzimidazole]
- therapeutic index (TI), ratio of toxic dose to efficacious dose: 1-2

From patent US6362207B1, “Methods of treating viral infections with benzimidazoles” (priority 1995, dated 2002)
